Common to all, as to assay: Calcium assay, HEK293/Gα16 cells, GAL2R mutants
Assay type in all cases: cell-based

The target in test [1] is T1, GAL2R mutants (Homo sapiens, UniProt O43603, L172A).
T1 construct: expressed in transfected cells; host or cells: HEK293
T1 sequence (O43603 1-387 L172A): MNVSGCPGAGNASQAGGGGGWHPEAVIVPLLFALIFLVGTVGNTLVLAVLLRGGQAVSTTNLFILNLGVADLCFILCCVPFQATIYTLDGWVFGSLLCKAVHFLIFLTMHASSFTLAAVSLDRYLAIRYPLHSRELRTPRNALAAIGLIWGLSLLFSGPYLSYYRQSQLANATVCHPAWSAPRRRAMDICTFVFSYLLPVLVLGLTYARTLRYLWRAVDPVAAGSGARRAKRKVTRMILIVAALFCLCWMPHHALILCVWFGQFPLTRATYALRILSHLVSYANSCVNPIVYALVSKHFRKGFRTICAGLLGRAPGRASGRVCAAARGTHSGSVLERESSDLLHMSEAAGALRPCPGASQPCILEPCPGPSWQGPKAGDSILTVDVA
The conditions noted are these: GAL2R L172ECL2A; spexin, HEK293/Gα16; mean ± S.E.M.

For test [2], the target named is T2, GAL2R mutants (Homo sapiens, UniProt O43603, A170S).
T2 construct: expressed in transfected cells; host or cells: HEK293
T2 sequence (O43603 1-387 A170S): T1 sequence (O43603 1-387 L172A) with A170S, A172L
The following applies: GAL2R A170ECL2S; spexin, HEK293/Gα16; mean ± S.E.M.

The target of test [3] is T3, GAL2R mutants (Homo sapiens, UniProt O43603, I256A).
T3 construct: expressed in transfected cells; host or cells: HEK293
T3 sequence (O43603 1-387 I256A): T1 sequence (O43603 1-387 L172A) with A172L, I256A
The following applies: GAL2R I2566.55A, spexin.

For test [4], the target named is T4, GAL2R mutants (Homo sapiens, UniProt O43603, L255A).
T4 construct: expressed in transfected cells; host or cells: HEK293
T4 sequence (O43603 1-387 L255A): T1 sequence (O43603 1-387 L172A) with A172L, L255A
The following applies: GAL2R L2556.54A, spexin.

In test [5] the target is T5, GAL2R mutants (Homo sapiens, UniProt O43603, V259A).
T5 construct: expressed in transfected cells; host or cells: HEK293
T5 sequence (O43603 1-387 V259A): T1 sequence (O43603 1-387 L172A) with A172L, V259A
The following applies: GAL2R V2596.58A; spexin, HEK293/Gα16; mean ± S.E.M.

Usually EC50 stands for the concentration needed to bring the measured effect to its halfway point.

Residue numbers refer to the chain shown, from its start.

As for spexin, the EC50 in test [1] stood at 8.66 ± 0.279 µM; in test [2] it was 0.132 ± 0.019 µM; in test [3] (HEK293/Gα16, mean ± S.E.M.), 0.679 ± 0.14 µM; in test [3] (replicate 1), 0.6743 µM; in test [4] (HEK293/Gα16, mean ± S.E.M.) it was 1.77 ± 1.24 µM; in test [4] (replicate 1), 4.22 µM. Moreover, the EC50 in test [5] came out at 4.7 ± 1.69 µM.

(Values after article PMC8924211 (Nature Communications, 2022).)
